Test results from patent US8137991B2, “Methods of reducing angiogenesis of age-related macular degeneration (AMD) or choroidal neovascularization by an anti-carboxyetheylpyrrole (CFP) antibody” (The Cleveland Clinic Foundation, priority 2006, dated 2012).

Assays:
[1] = system: chick chorioallantoic membrane (CAM); assay: Chick chorioallantoic membrane (CAM) angiogenesis assay; assay type: in vivo, chick (white Leghorn embryos); details: for average skeletal density of CAM vessels: methylcellulose disc with 0.5 μg protein, 48 hours
Method: The CAM assay was performed as described previously (Nguyen, M., et al. (1994) Microvasc Res 47, 31-40) with slight modifications. Fertilized 3-day old white Leghorn eggs (CWRU, Squire valley farms) were cracked, and embryos with the yolk intact were placed in 100 mm×20 mm glass bottom Petri dishes. Following incubation for 3 days at 37° C. in 3% CO2, a methylcellulose disc (Fisher Scientific, Fair Lawn, N.J.) containing CEP-HSA or CEP-dipeptide, was placed on the CAM of individual embryos. CAMs implanted with discs loaded with unmodified dipeptide, HSA, control buffer or with vascular endothelial growth factor (VEGF) were used as negative and positive controls respectively. After 48 hours of incubation, India ink was injected into the vascular system for better visualization of the vessels by a stereomicroscope. Images were captured with a Panasonic CCD camera. Samples were always compared on the same CAM to avoid egg-to-egg variability. For quantitative analysis of vessel density and leakage, CAM images were batch processed using customized macros generated in Image-Pro Plus 5.0 (Media Cybernetics, Silver Spring, Md.). Briefly, a region of interest (ROI) was traced around grafted tissue in each image, each image was then cropped to its ROI, converted to grayscale, and processed using a large spectral filter to enhance the appearance of vasculature whilst omitting presence of larger vessels (determined by filter width). For skeletal density and vessel leakage measurements images were skeletonized using morphological filters (pixels representing branch points were excluded to divide vasculature into distinct vessel segments). Lengths of skeletal segments larger than 5 pixels (delineating vessels) were summed and divided by total graft area for skeletal density. Conversely, skeletal segments smaller than 5 pixels were summed for vessel leakage measurement.
The potential consequence of CEP modified human serum albumin (CEP-HSA) on angiogenesis was examined using the chick chorioallantoic membrane (CAM) assay. The angiogenic response to methylcellulose discs containing 0.5 μg (n=4), 1 μg (n=3), and 10 μg (n=4) of CEP-HSA or unmodified HSA (n=8) was analyzed. The protein preparations were analyzed for endotoxin and determined to be free of contamination. Representative results from these CAM assays are depicted in FIGS. 1a-1d. […] The average skeletal density of CAM vessels with 0.5 μg of CEP-HSA was ˜3.1.

[2] = system: rat cornea (limbal blood vessels); assay: Rat corneal micropocket assay, angiogenic response to implanted pellets; assay type: in vivo, Sprague-Dawley rats; details: pellet 1 mm from limbus, CEP-HSA 1 μg; for growth of limbal blood vessels towards the pellet: CEP-dipeptide 37 ng, HSA 1 μg, dipeptide 41 ng
Method: Hydron/sucralfate pellets containing unmodified or CEP modified HSA or dipeptide with or without neutralizing antibodies (monoclonal mouse anti-human VEGF, 1.5 μg, R&D systems (MAB293) or monoclonal anti-CEP antibody (Gu, X., et al. (2003) J. Biol. Chem.), 4 μg) were inserted into corneal micropockets (1 mm from the limbus) of Sprague-Dawley rats. Control mouse IgM, 4 μg (eBioscience, cat. #14-4752) and mouse IgG, 1.5 μg (Southern Biotechnology Inc., cat. #0104-01) antibodies were used in control pellets for comparison with anti-CEP and anti-VEGF antibodies respectively. Corneas were examined daily with the aid of a surgical microscope to monitor angiogenic responses to CEP modified peptide or proteins. To photograph the angiogenic response, animals were perfused with India ink to label the vessels, and following enucleation and fixation, the corneas were excised, flattened and photographed. A positive neovascularization response was recorded only if sustained directional in-growth of capillary sprouts and hairpin loops toward the pellet was observed. A negative response was recorded when either no growth is observed or only an occasional sprout or hairpin loop showing no evidence of sustained growth was detected. All responses were compared to a negative control (pellet and pellet containing buffer) and positive control of VEGF. For neutralization studies, responses were compared to a negative control of non-specific mouse immunoglobulin (IgM) described above. Angiogenic response was analyzed for peak vascular extension and total skeletal (vascular) length using Image-Pro Plus 5.0 (Media Cybernetics, Silver Spring, Md.). Prior to performing vessel measurements images were processed using best-fit equalization filters, spectral filters, and large pixel-width background removal filters to enhance vasculature and eliminate image artifacts. […] The resulting image, a single segmented object representing the overall dimensions of the vascular bed, was analyzed for maximum box-width, i.e. extent of vessel penetration. […]

[3] = system: ARPE-19 cells; assay: VEGF secretion assay (ELISA) in retinal pigment epithelial cells; assay type: cell-based, Human; details: 0.1-10 μM, ARPE19 cells, 18 hours
Method: Human retinal pigment epithelium (ARPE-19) cells were cultured in DMEM/F-12 medium with 10% fetal bovine serum, 100 U/ml penicillin, and 100 μg/ml streptomycin. The medium was changed every four days and all studies were performed on confluent cells. Endotoxin free media and serum were used. Confluent cultures in 24 well plates were starved for three days with serum free medium before incubating with CEP-Dipeptide or CEP-HSA (0.1-0.10 μM) and unmodified dipeptide or HSA (as controls). The CEP-dipeptide, CEP-HSA and controls were quantified by amino acid analysis (Crabb, J. W., et al. (1997) Amino Acid Analysis (John Wiley and Sons, Inc.)). Supernatant media was collected to measure VEGF secretion using an enzyme-linked immunosorbent assay (ELISA) according to the manufacturer's protocol (Research Diagnostics, Flanders, N.J.). […]
Another type of oxidized protein modification, namely advanced glycation end products (AGEs), stimulate angiogenesis in vivo (Okamoto, T., et al. (2002) Microvasc Res 63, 186-95) and induce VEGF secretion in vitro (Hirata, C., et al. (1997) Biochem Biophys Res Commun 236, 712-5; Hoffmann, S., et al. (2000) Invest Opthalmol Vis Sci 41, 2389-93). To explore whether CEP adducts influence VEGF secretion in vitro, human retinal pigment epithelial (RPE) cells were treated with CEP-dipeptide (0.1-10 μM) and VEGF protein quantified in the growth media by ELISA.

Row | Substance | angiogenic response in CAM ([1]; CEP-HSA 161 ng (2.4 pmol)) | angiogenic response in CAM ([1]; CEP-HSA 0.5 μg (FIG. 1b), India ink perfusion) | average skeletal density of CAM vessels [1] | increase in peak vessel extension compared with unmodified parent molecule ([2]; day 7, CEP-dipeptide 37 ng (FIG. 2g)) [fold] | growth of limbal blood vessels towards the pellet [2] | VEGF in the growth media (secretion) relative to unmodified control or media alone [3] | angiogenic response in CAM ([1]; HSA at doses up to 0.5 μg)
1 | CEP-HSA: human serum albumin chemically modified with 2-(ω-carboxyethyl)pyrrole by Paal-Knorr condensation with DOHA | maximal response | induced sprouting of new blood vessels | ~3.1 | ~23 | stimulated the growth of limbal blood vessels towards the pellet | no increase in VEGF secretion | 
2 | HSA: unmodified human serum albumin, negative control |  |  | ~2.5 |  | did not induce this effect |  | minimal or absent response
